Values of other authors, collected in US8969530B2, “Anti-clathrin heavy chain monoclonal antibody for inhibition of tumor angiogenesis and growth and application thereof” (Academia Sinica, priority 2011, dated 2015).

Test system: pancreatic cancer
Conditions: clinical trial, in combination with small molecule drugs; cited from earlier work

Substance: cetuximab
- improvement in overall survival of pancreatic cancer patients: no significant improvement
